{"source": "patent US9220705B2", "about": "“Method of treating colorectal cancer” (priority 2013, dated 2015)", "key": {"[1]": {"system": "panel of human tumor cell lines (A431, MCF-7, A375, HCT-15, SW480, CaCo-2, DLD-1)", "experiment": "MTT cytotoxicity, comparison over the Table 1 panel", "assay_type": "cell-based", "conditions": "average over seven cell lines of Table 1", "experimental": "(§1) After 24 h, the medium was removed and replaced with a fresh one containing the compound to be studied, at the appropriate concentration, dissolved in 0.9% sodium chloride solution just before use. Triplicate cultures were established for each treatment. After 72 h, each well was treated with […] of a 5 mg mL^−1 MTT saline solution and, after 5 h of incubation, 100 μL of a sodium dodecylsulfate (SDS) solution in 0.01 M HCl were added. After an overnight incubation, the inhibition of cell growth induced by the tested complexes was determined by measuring the absorbance of each well at 570 nm using a BioRad 680 microplate reader. Mean absorbance for each drug dose was expressed as percentage of the control and plotted vs. drug concentration. Dose-response curves were fitted and IC50 values were calculated with four parameter logistic model (4PL).\nThe cytotoxicity was evaluated by means of the MTT test for 72 h treatment with increasing concentrations of the tested compounds."}, "[2]": {"system": "2008/C13*, LoVo/LoVo-OXP, LoVo MDR", "experiment": "MTT cytotoxicity, comparison over the Table 2 cell lines", "assay_type": "cell-based, human", "conditions": "2008 ovarian and LoVo colon sensitive cells", "experimental": "as §1\nA LoVo cell line retaining a multidrug resistance phenotype was also considered (LoVo MDR). Cross-resistance profiles were evaluated by means of the resistance factor (RF), which is defined as the ratio between the IC50 value for the resistant cells and that arising from the sensitive cells (Table 2)."}}}
{"substance": "(OC-6-33)-dichloro(cis-1,4-cyclohexanediamine-N,N′)dihydroxyplatinum [Compound 4]", "values": [{"measurement": "average cytotoxic activity compared with reference drugs", "setting": "[1]", "result": "lower than oxaliplatin but slightly higher than cisplatin"}, {"measurement": "cytotoxic activity towards sensitive lines compared with reference drugs", "setting": "[2]", "result": "less effective than oxaliplatin and cisplatin towards ovarian sensitive cell line and rather similar to cisplatin against LoVo colon cancer cells"}]}
